The subject of one experiment is IL6. Description: IL-6 cell based assay. The conditions noted are these: read-out: IC50 IL6.
A further experiment concerns the target BRD4 (Homo sapiens, UniProt O60885). Description: in vitro BRD4 assay. The conditions noted are these: read-out: IC50 BRD4.
The next experiment deals with RIPK3 (Homo sapiens, UniProt Q9Y572). Description: in vitro RIP3 kinase assay. To be noted: read-out: IC50 RIPK3.
For experiment [1], the system named is lewisite-induced skin injury. Description: Lewisite-induced vesicant skin injury model.
The test system of the next experiment is PAO-induced skin injury. Description: PAO-induced cutaneous injury model, topical treatment. The conditions noted are these: PAO-challenged skin.
The mark [2] stands for this setting: 1 mg/mouse, applied 30 minute and 6 hr post lewisite.

Chains of the proteins cited; added tags and fusions are not shown. Lines headed by an entry give the natural chain unless they say otherwise; changes in a name come on top.
UniProt Q9Y572: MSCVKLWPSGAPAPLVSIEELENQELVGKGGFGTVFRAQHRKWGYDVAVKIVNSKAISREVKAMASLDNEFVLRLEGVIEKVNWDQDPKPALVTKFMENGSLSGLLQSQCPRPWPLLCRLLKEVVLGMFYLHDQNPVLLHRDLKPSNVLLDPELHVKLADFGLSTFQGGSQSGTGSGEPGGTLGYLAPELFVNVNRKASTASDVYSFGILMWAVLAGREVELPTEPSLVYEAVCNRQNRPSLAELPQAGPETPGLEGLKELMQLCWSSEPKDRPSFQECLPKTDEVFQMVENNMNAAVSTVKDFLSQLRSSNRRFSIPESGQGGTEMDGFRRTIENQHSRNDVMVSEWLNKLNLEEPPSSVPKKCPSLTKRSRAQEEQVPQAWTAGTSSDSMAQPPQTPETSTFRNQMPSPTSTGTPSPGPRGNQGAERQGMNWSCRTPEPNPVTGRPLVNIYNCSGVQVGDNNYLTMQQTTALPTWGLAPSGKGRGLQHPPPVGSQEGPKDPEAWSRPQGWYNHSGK

A value given as a limit tells only on which side of the number the result lay.

For the compound `Oc1ccc(Nc2ncc3nc(Nc4ccccc4)n(C4CCOCC4)c3n2)cc1`, the values for the IC50 in the experiment on IL6, on BRD4 and on RIPK3 were 530 nM, 0.77 µM and 430 nM, respectively.
For `CN(C)c1ccc(Nc2ncc3nc(Nc4c(F)cc(F)cc4F)n(C4CCOCC4)c3n2)cc1`, in that order: below 100 nM, 3.76 µM and 220 nM.
With `CCNC(=O)c1cc2c(-c3cc(C(C)(C)O)ccc3Oc3c(C)cc(F)cc3C)cn(C)c(=O)c2[nH]1`, the “histopathological changes: infiltration of inflammatory cells and epidermal cell damage (H&E)” value (shortened to “histopathological changes: infiltration”) in experiment [1] (lewisite-challenged skin) is on record as “significantly reduced both infiltration of inflammatory cells into the dermis”.
As to `Oc1ccc(Nc2ncc3nc(Nc4c(F)cc(F)cc4F)n(-c4ccc(O)cc4)c3n2)cc1`, the IC50 (usually the midpoint of a concentration-inhibition curve) is below 200 nM with IL6, 1.71 µM on BRD4 and 1450 nM at RIPK3.
Turning to `COc1ccc(Nc2ncc3nc(Nc4c(F)cc(F)cc4F)n(C4CCN(C)CC4)c3n2)cc1`, the values for the IC50 in the experiment on IL6, on BRD4 and on RIPK3 were below 98 nM, 23.7 µM and 2430 nM, respectively.
For the compound `Fc1cc(F)c(Nc2nc3cnc(Nc4ccc(C(F)(F)F)cc4)nc3n2C2CCOCC2)c(F)c1`, the IC50 in the experiment with IL6 was 1170 nM; on BRD4, 24.6 µM; on RIPK3 it was above 40000 nM.
The matching figures for `O=C(O)c1ccc(Nc2ncc3nc(Nc4c(F)cc(F)cc4F)n(C4CCOCC4)c3n2)cc1`: 19100 nM, above 40 µM and below 80 nM.
Consider `Oc1cccc(Nc2ncc3nc(Nc4c(F)cc(F)cc4F)n(C4CCOCC4)c3n2)c1`, for which the figures for the IC50 in the experiment on IL6, at BRD4 and at RIPK3 were 280 nM, 11.8 µM and 90 nM, respectively.
Consider `COc1ccc(Nc2ncc3nc(Nc4c(F)cc(F)cc4F)n(C4CCOCC4)c3n2)cc1`, for which the results for the IC50 with IL6, at BRD4 and at RIPK3 were 640 nM, 6.26 µM and 540 nM, respectively.
As for `Oc1ccc(Nc2ncc3nc(Nc4c(F)cc(F)cc4F)n(C4CCOC4)c3n2)cc1` (stereo not drawn), the figures for the IC50 with IL6, at BRD4 and on RIPK3 were 1070 nM, 1.21 µM and 310 nM, respectively.
The matching figures for `Fc1ccc(Nc2ncc3nc(Nc4c(F)cc(F)cc4F)n(C4CCOCC4)c3n2)cc1`: 500 nM, 3.17 µM and 590 nM.
For `Fc1cc(F)c(Nc2nc3cnc(Nc4ccc(F)c(F)c4)nc3n2C2CCOCC2)c(F)c1`, in that order: 1510 nM, 2.02 µM and 6480 nM.
The matching figures for `Oc1ccc(-n2c(Nc3c(F)cc(F)cc3F)nc3cnc(NC4CCOCC4)nc32)cc1`: 280 nM, 21.4 µM and 28000 nM.
As for `Cc1ccc(Nc2ncc3nc(Nc4c(F)cc(F)cc4F)n(C4CCOCC4)c3n2)cc1`, the figures for the IC50 in the experiment with IL6, on BRD4 and at RIPK3 were 880 nM, 29.6 µM and 880 nM, respectively.
As for `Oc1ccc(Nc2ncc3nc(Nc4c(F)cc(F)cc4F)n(C4CCOCC4)c3n2)cc1`, the IC50 in the experiment with IL6 was 610 nM. Also, the IC50 at BRD4 is 0.52 µM. In experiment [1] (setting [2]), the “lewisite-induced skin damage, gross appearance of the skin” value is “protected against lewisite-induced skin damage very significantly”; the “skin bi-fold thickness and Draize score (erythema, edema, necrosis)” value is reported as “significant protection against lewisite-induced changes in these parameters”. Also, in experiment [1] (lewisite-challenged skin), the “expression of BRD4-dependent inflammatory genes (IL-6, Saa3, Nfe212, Nlrp3), RT-PCR” value is recorded as “significantly reduced transcriptionally regulated BRD4-dependent inflammatory genes”; the “expression of BRD4-regulated genes involved in skin tissue damage (Foxo3, Irf1, Bcl6), RT-PCR” value is “highly effective in attenuating the expression of genes associated with lewisite-induced skin tissue damage”; the “histopathological changes: infiltration” value was “significantly reduced both infiltration of inflammatory cells into the dermis”. For the same compound, the “protein expression of BRD4 and histone marks H3k9ac, H3k18ac, H4k5ac, H4K8ac (western blot)” value in experiment [1] (lewisite-challenged skin, compared to CPI-0610 and ABBV-744) is recorded as “better or at least equally effective”. Further, the “nuclear expression of BRD4 and H3K9ac, immunohistochemistry” value in experiment [1] (lewisite-treated skin) is listed as “significantly reduced the nuclear expression of these proteins”. For the same compound, in the experiment on PAO-induced skin injury (6 h and 24 hrs post PAO), the “BRD4 expression and histone marks H3K9ac and H4K5ac, densitometry of western blots” value was “significantly reduced BRD4 expression and BRD4-dependent H3 and H4 histone marks in a dose-dependent manner”. For the same compound, in the experiment with PAO-induced skin injury (24 hrs, RT-PCR), the “mRNA expression of BRD4-regulated inflammatory genes (Nfe2l2, NLRP3, IL-6)” value is reported as “decreased their levels even below the vehicle-treated control level” and the “mRNA expression of BRD4 regulated genes involved in tissue damage (Foxo3, Cxcl13, Pell)” value is on record as “diminution in the expression of mRNA of these genes”. For the same compound, the “phosphorylation of RIPK3 and MLKL (RIPK3 signaling), western blot” value in the experiment on PAO-induced skin injury (three topical doses, 10 minutes after PAO) is “significantly reduces this signaling in a dose-dependent manner”. Besides, the IC50 at RIPK3 stood at 90 nM.
`COc1ccc(Nc2ncc3nc(Nc4c(F)cc(F)cc4F)n(-c4ccc(OC)cc4)c3n2)cc1`: the IC50 in the experiment with IL6 came to 7800 nM; at BRD4, 11.6 µM; at RIPK3, 5810 nM.
Consider `Oc1ccc(Nc2ncc3nc(Nc4ccc(F)cc4)n(C4CCOCC4)c3n2)cc1`, for which the IC50 in the experiment on IL6 turned out to be 450 nM; at BRD4, 0.69 µM; at RIPK3, 770 nM.
Consider `CC(=O)Nc1c(F)cc(C(=O)N[C@H]2CC[C@H](O)CC2)cc1O[C@@H](C)c1ccccc1`, for which the “histopathological changes: infiltration” value in experiment [1] (lewisite-challenged skin) is given as “afforded protection to the minimum level”.
Turning to `COc1ccc(Nc2ncc3nc(Nc4c(F)cc(F)cc4F)n(C4CCNCC4)c3n2)cc1`, the figures for the half-inhibitory concentration (IC50) with IL6, on BRD4 and at RIPK3 were 10 nM, 15.9 µM and 110 nM, respectively.
Take `COc1ccc(Nc2ncc3nc(Nc4c(F)cc(F)cc4F)n(C4CCOC4)c3n2)cc1` (stereo not drawn): the IC50 was found to be 2190 nM in the experiment on IL6, 9.41 µM on BRD4 and 1330 nM on RIPK3.
As for `COC(=O)c1ccc(Nc2ncc3nc(Nc4c(F)cc(F)cc4F)n(C4CCOCC4)c3n2)cc1`, the IC50 in the experiment with IL6 was determined as 1600 nM; at BRD4, 16.3 µM; on RIPK3 it was 17500 nM.
For `COc1ccc(-n2c(Nc3c(F)cc(F)cc3F)nc3cnc(NC4CCOCC4)nc32)cc1`, the IC50 is 39.5 µM on BRD4 and above 40000 nM on RIPK3.
Turning to `Oc1ccccc1Nc1ncc2nc(Nc3c(F)cc(F)cc3F)n(C3CCOCC3)c2n1`, the IC50 at BRD4 was 39.8 µM; on RIPK3, above 40000 nM.
Regarding `Fc1cc(F)c(Nc2nc3cnc(Nc4ccc(OC(F)(F)F)cc4)nc3n2C2CCOCC2)c(F)c1`, the IC50 in the experiment with IL6 is 880 nM; on BRD4, 13.5 µM; at RIPK3, above 40000 nM.
For `Fc1cc(F)c(Nc2nc3cnc(Nc4ccccc4)nc3n2C2CCOCC2)c(F)c1`, the IC50 in the experiment on IL6 was 340 nM; on BRD4, 15 µM; on RIPK3, 160 nM.
For `Oc1ccc(Nc2ncc3nc(Nc4c(F)cc(F)cc4F)n(C4CCNCC4)c3n2)cc1`, in that order: 50 nM, 6.87 µM and 10 nM.
For `Fc1cc(F)c(Nc2nc3cnc(Nc4ccc(OC(F)F)cc4)nc3n2C2CCOCC2)c(F)c1`, in that order: 310 nM, 4.5 µM and 610 nM.
In the case of `Cc1noc2c1-c1ccccc1C(c1ccc(Cl)cc1)=N[C@H]2CC(N)=O`, the “histopathological changes: infiltration” value in experiment [1] (lewisite-challenged skin) was “significantly reduced both infiltration of inflammatory cells into the dermis”.
